Assays:
[1] = target: human complement factor B (Homo sapiens (Human), UniProt P00751); assay: biochemical
[2] = tested on: passive heymann nephritis rats; assay: Therapeutic effects on Heymann nephritis in rats induced by sheep anti-rat Fx1A serum; format: in vivo; conditions: for decrease in the ratio of total protein/creatinine in rat urine compared to the model group: day 14
Source text: Experimental animals: laboratory male SD rats, provided by Vital River Laboratory Animal Technology Co., Ltd. (production license number: SCXK (Zhejiang) 2019-0001; animal certificate number: 20210401Abzz0619000322; weighing 180-200 g at purchase).
After the acclimatization, the male SD rats were grouped as follows according to total protein in urine and body weight in the 2 days before the experiment:
On day 0 of the experiment, the model group and administration groups were given a single tail vein injection of Fx1A serum (5 mL/kg), and the normal group was given a tail vein injection of normal goat serum. […] The experiment ended on day 15. Two-hour urine was collected on days 2, 4, 6, 8, 11, and 14 and assayed for creatinine and total protein. Serum was collected on day 15 for complement activation fragment (C3d+iC3b) analysis.
The experimental data are expressed as mean±standard error (SEM). Statistical comparison was performed using Excel software t-test. The data of the model group and the data of the blank control group were analyzed and compared to judge whether a significant mathematical statistical significance exists. *P<0.05 indicates a significant difference between the model group and the blank control group, **P<0.01 indicates a highly significant difference between the model group and the blank control group, and ***P<0.001 indicates a very highly significant difference between the model group and the blank control group. #P<0.05 indicates a significant difference between an administration group and the model group, ##P<0.01 indicates a highly significant difference between an administration group and the model group, and ###P<0.001 indicates a very highly significant difference between an administration group and the model group.

Row | SMILES | IC50 [1] [nM] | day from which statistical decreases in urine total protein/creatinine ratio began ([2]; 10 mg/kg (low-dose) orally twice daily) [days] | decrease in the ratio of total protein/creatinine in rat urine compared to the model group ([2]; 10 mg/kg orally twice daily) [%] | day from which statistical decreases in urine total protein/creatinine ratio began ([2]; 30 mg/kg (medium-dose) orally twice daily) [days] | decrease in the ratio of total protein/creatinine in rat urine compared to the model group ([2]; 30 mg/kg orally twice daily) [%] | day from which statistical decreases in urine total protein/creatinine ratio began ([2]; 90 mg/kg (high-dose) orally twice daily) [days] | decrease in the ratio of total protein/creatinine in rat urine compared to the model group ([2]; 90 mg/kg orally twice daily) [%] | dose dependence of the decrease in urine total protein/creatinine ratio ([2]; day 14, across dose groups)
1 | CCO[C@H]1C[C@H]2CC[C@](c3ccc(C(=O)O)cc3)(C1)N2Cc1c(OC)cc(C)c2[nH]ccc12 (relative stereo) [Example 1, (±)-rel-4-((1S,3S,5R)-3-Ethoxy-8-((5-methoxy-7-methyl-1H-indol-4-yl)methyl)-8-azabicyclo[3.2.1]octan-1-yl)benzoic acid] | 4.2 | – | – | – | – | – | – | –
2 | CCO[C@H]1C[C@H]2CCC(c3ccc(C(=O)O)cc3)(C1)N2Cc1c(OC)cc(C)c2[nH]ccc12 (stereo in doubt) [Example 1-1, 4-((1S,3S,5R)-3-Ethoxy-8-((5-methoxy-7-methyl-1H-indol-4-yl)methyl)-8-azabicyclo[3.2.1]octan-1-yl)benzoic acid] | 1.3 | 11 | 48.1 | 11 | 70.9 | 8 | 77.2 | significantly dose-dependent
3 | CCO[C@@H]1C[C@@H]2CCC(c3ccc(C(=O)O)cc3)(C1)N2Cc1c(OC)cc(C)c2[nH]ccc12 (stereo in doubt) [Example 1-2, 4-((1R,3R,5S)-3-Ethoxy-8-((5-methoxy-7-methyl-1H-indol-4-yl)methyl)-8-azabicyclo[3.2.1]octan-1-yl)benzoic acid] | 72.2 | – | – | – | – | – | – | –

Reference: US20250250267A1, “NITROGEN-CONTAINING BRIDGED HETEROCYCLIC COMPOUND, PREPARATION METHOD THEREFOR, AND MEDICAL USE THEREOF” (Jiangsu Hengrui Pharmaceuticals Co., Ltd., priority 2020, published 2025)
